16 compounds from PubChem BioAssay AID746 (The Scripps Research Institute Molecular Screening Center, 2007) can be followed below.

The chains behind the UniProt entries cited, without tags or fusion partners.
UniProt P53779, whole entry: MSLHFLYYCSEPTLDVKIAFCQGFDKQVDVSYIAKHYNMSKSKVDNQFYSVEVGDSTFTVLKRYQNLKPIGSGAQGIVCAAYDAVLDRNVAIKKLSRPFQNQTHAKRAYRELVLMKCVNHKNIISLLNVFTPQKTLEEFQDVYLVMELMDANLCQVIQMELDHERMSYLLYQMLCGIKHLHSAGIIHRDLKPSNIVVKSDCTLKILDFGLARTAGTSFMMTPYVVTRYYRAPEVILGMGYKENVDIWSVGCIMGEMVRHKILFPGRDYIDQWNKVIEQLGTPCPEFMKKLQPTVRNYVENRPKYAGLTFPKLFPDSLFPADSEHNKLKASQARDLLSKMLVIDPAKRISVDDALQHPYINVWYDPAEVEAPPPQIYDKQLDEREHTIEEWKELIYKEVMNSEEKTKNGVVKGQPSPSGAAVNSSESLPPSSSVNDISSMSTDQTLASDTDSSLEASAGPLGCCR

The list shows a part of the results, in another mix than the full data. Active and inactive are the calls of the source. Cut-off read from the data, not from the text of the source: active = inhibition above about 17%; inactive = the rest.

In this test the target is Mitogen-activated protein kinase 10 (Homo sapiens) (UniProt P53779). Put plainly: JNK3 kinase activity inhibitors, primary screen, biochemical, human, purified enzyme (AID 746).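 Note: 0% = DMSO and 100% = reference inhibitor.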 The conditions noted are these: HTS, at 8 µM, active compounds read high.
Regarding `CP(=O)(Nc1ccccc1F)Oc1ccccc1` (stereo unspecified), the inhibition is inactive: 2.9%. Under `CN(C)CCOC(=O)C(O)(c1ccccc1)C1CCCCC1` (stereo unspecified) stands inactive: -8.48%; under `Cc1ccccc1NP(C)(=O)Nc1ccccc1C`, inactive: 3.44%; under `CCOP(C)(=S)SCC(=O)NC(C)(CC)C(=O)O` (stereo unspecified), inactive: 0.53%. Take `CCN(CC)CC(O)COC(=O)C(O)(c1ccccc1)C1CCCCC1` (stereo unspecified): the inhibition is inactive: -3.77%.

For the compound `COc1ccccc1OP(C)(=O)Nc1c(C)n(C)n(-c2ccccc2)c1=O` (stereo unspecified), the inhibition is inactive: -2.13%. In the case of `CP(=O)(Oc1ccccc1)N1CCOC1=O` (stereo unspecified) it was inactive: 3.48%.

Regarding `Cc1nc2ccc3ccccc3c2o1.O=[N+]([O-])c1cc([N+](=O)[O-])c(O)c([N+](=O)[O-])c1`, the inhibition is inactive: -13.5%.

Consider `COc1ccccc1OP(C)(=O)Nc1ccc(C)c(C)c1` (stereo unspecified), for which the inhibition was inactive: 0.69%.

As to `CP(=O)(Nc1ccccn1)Oc1ccccc1` (stereo unspecified), the inhibition was inactive: 0.84%. In the case of `COc1ccccc1OP(C)(=O)Nc1ccc(C)cc1` (stereo unspecified) it was inactive: 5.42%; in that of `Cc1ccc(NP(C)(=O)Oc2ccccc2)c(C)c1` (stereo unspecified), inactive: -9.71%. As to `CP(=S)(Nn1cnnc1)Oc1ccccc1` (stereo unspecified), the inhibition is inactive: -1.65%. Under `CCOP(C)(=S)SCC(=O)NC(C)C(=O)O` (stereo unspecified) stands inactive: -6.22%; under `Cc1nc2ccc3ccccc3c2s1.O=[N+]([O-])c1cc([N+](=O)[O-])c(O)c([N+](=O)[O-])c1`, inactive: -2.38%; under `Cc1ccc(C)c(NP(C)(=O)Oc2ccccc2)c1` (stereo unspecified), inactive: -3.88%.

What is called inhibition is the change of the read-out against control, counted positive when it falls.
